System: T-cell subtypes, NK cells
Assay: Longitudinal blood analysis of T-cell subsets and NK cells (MAGNIFY-MS)
[1] = Patient Canada VZV-70056800222530003, month 3, 23.0 wk after Shingrix, 13.3 wk after first Mavenclad dose
[2] = Patient Finland VZV-70056800221620004, month 0, 6.4 wk after Zostavax, before first Mavenclad dose
[3] = Patient Finland VZV-70056800221620004, month 3, 18.3 wk after Zostavax, 11.9 wk after first Mavenclad dose
[4] = Patient Finland VZV-70056800221620004, month 6, 32.3 wk after Zostavax, 25.9 wk after first Mavenclad dose
[5] = Patient Finland VZV-70056800221620004, month 12, 61.3 wk after Zostavax, 54.9 wk after first Mavenclad dose
[6] = Patient Finland VZV-70056800221620004, month 15, 74.3 wk after Zostavax, 13.0 wk after first dose of previous Mavenclad course

Structure (SMILES): Nc1nc(Cl)nc2c1ncn2[C@H]1C[C@H](O)[C@@H](CO)O1 [cladribine tablets, Cladribine]
- CD4+ TC [1]: 274 cells/μL
- CD4+ Th1 TC [1]: 121.0 cells/μL
- CD4+ Th2 TC [1]: 110.9 cells/μL
- CD4+ Th 17 TC [1]: 7.6 cells/μL
- CD4+ Treg [1]: 39.1 cells/μL
- CD4+ cent. mem. TC [1]: 96.7 cells/μL
- CD4+ eff. mem. TC [1]: 118.0 cells/μL
- CD4+ naïve TC [1]: 59.4 cells/μL
- CD8+ TC [1]: 241 cells/μL
- CD8+ cent. mem. TC [1]: 11.9 cells/μL
- CD8+ eff. mem. TC [1]: 135.6 cells/μL
- CD8+ naïve TC [1]: 45.8 cells/μL
- CD8+ term. diff. effector TC [1]: 47.7 cells/μL
- CD16+ CD56+ NKC [1]: 107 cells/μL
- CD4+ TC [2]: 622 cells/μL
- CD4+ Th1 TC [2]: 254.6 cells/μL
- CD4+ Th2 TC [2]: 312.6 cells/μL
- CD4+ Th 17 TC [2]: 4.5 cells/μL
- CD4+ Treg [2]: 44.8 cells/μL
- CD4+ cent. mem. TC [2]: 273.6 cells/μL
- CD4+ eff. mem. TC [2]: 83.3 cells/μL
- CD4+ naïve TC [2]: 264.2 cells/μL
- CD8+ TC [2]: 408 cells/μL
- CD8+ cent. mem. TC [2]: 38.1 cells/μL
- CD8+ eff. mem. TC [2]: 83.3 cells/μL
- CD8+ naïve TC [2]: 220.9 cells/μL
- CD8+ term. diff. effector TC [2]: 65.7 cells/μL
- CD16+ CD56+ NKC [2]: 165 cells/μL
- CD3+ TC [3]: 397 cells/μL
- CD4+ TC [3]: 192 cells/μL
- CD4+ Th1 TC [3]: 74.7 cells/μL
- CD4+ Th2 TC [3]: 94.1 cells/μL
- CD4+ Th 17 TC [3]: 2.6 cells/μL
- CD4+ Treg [3]: 27.4 cells/μL
- CD4+ cent. mem. TC [3]: 83.9 cells/μL
- CD4+ eff. mem. TC [3]: 40.0 cells/μL
- CD4+ naïve TC [3]: 67.0 cells/μL
- CD8+ TC [3]: 185 cells/μL
- CD8+ cent. mem. TC [3]: 18.8 cells/μL
- CD8+ eff. mem. TC [3]: 80.7 cells/μL
- CD8+ naïve TC [3]: 46.8 cells/μL
- CD8+ term. diff. effector TC [3]: 38.7 cells/μL
- CD16+ CD56+ NKC [3]: 112 cells/μL
- CD3+ TC [4]: 364 cells/μL
- CD4+ TC [4]: 195 cells/μL
- CD4+ Th1 TC [4]: 74.6 cells/μL
- CD4+ Th2 TC [4]: 107.0 cells/μL
- CD4+ Th 17 TC [4]: 3.0 cells/μL
- CD4+ Treg [4]: 27.8 cells/μL
- CD4+ cent. mem. TC [4]: 101.3 cells/μL
- CD4+ eff. mem. TC [4]: 13.6 cells/μL
- CD4+ naïve TC [4]: 79.7 cells/μL
- CD8+ TC [4]: 153 cells/μL
- CD8+ cent. mem. TC [4]: 23.2 cells/μL
- CD8+ eff. mem. TC [4]: 41.9 cells/μL
- CD8+ naïve TC [4]: 55.1 cells/μL
- CD8+ term. diff. effector TC [4]: 32.9 cells/μL
- CD16+ CD56+ NKC [4]: 120 cells/μL
- CD3+ TC [5]: 474 cells/μL
- CD4+ TC [5]: 266 cells/μL
- CD4+ Th1 TC [5]: 101.1 cells/μL
- CD4+ Th2 TC [5]: 134.5 cells/μL
- CD4+ Th 17 TC [5]: 5.0 cells/μL
- CD4+ Treg [5]: 28.4 cells/μL
- CD4+ cent. mem. TC [5]: 120.0 cells/μL
- CD4+ eff. mem. TC [5]: 37.2 cells/μL
- CD4+ naïve TC [5]: 108.2 cells/μL
- CD8+ TC [5]: 188 cells/μL
- CD8+ cent. mem. TC [5]: 26.3 cells/μL
- CD8+ eff. mem. TC [5]: 52.0 cells/μL
- CD8+ naïve TC [5]: 71.2 cells/μL
- CD8+ term. diff. effector TC [5]: 38.5 cells/μL
- CD16+ CD56+ NKC [5]: 183 cells/μL
- CD3+ TC [6]: 169 cells/μL
- CD4+ TC [6]: 94 cells/μL
- CD4+ Th1 TC [6]: 38.1 cells/μL
- CD4+ Th2 TC [6]: 45.7 cells/μL
- CD4+ Th 17 TC [6]: 3.0 cells/μL
- CD4+ Treg [6]: 20.7 cells/μL
- CD4+ cent. mem. TC [6]: 43.5 cells/μL
- CD4+ eff. mem. TC [6]: 19.3 cells/μL
- CD4+ naïve TC [6]: 30.6 cells/μL
- CD8+ TC [6]: 74 cells/μL
- CD8+ cent. mem. TC [6]: 9.5 cells/μL
- CD8+ eff. mem. TC [6]: 18.3 cells/μL
- CD8+ naïve TC [6]: 25.6 cells/μL
- CD8+ term. diff. effector TC [6]: 20.6 cells/μL
- CD16+ CD56+ NKC [6]: 86 cells/μL
- NK cells (month 1-2, then repopulate to normal numbers): moderate decrease

Source: patent publication US12533408B2, “Treatment regimen for the treatment of autoimmune disorders” (Merck Patent GmbH, priority 2020, dated 2026)
